Measured values from patent US20250312469A1 (CANGET BIOTEKPHARMA, priority 2024, published 2025).

Legend:
[1] = for MCH % Diff: Day 15, vs Group 1
[2] = Group 4, 4/4 mg/kg/dose; for MCH % Diff / GLB (globulin), % Diff versus vehicle Group 1: female dogs; for GLB (globulin) % Diff vs Group 1: male dogs
[3] = female rats, Group 2, 3 mg/kg/wk oral, Day 15
[4] = female rats, Group 2, 3 mg/kg/wk oral, Day 15, vs vehicle Group 1
[5] = female rats, Group 3, 3.75/2.5 mg/kg/wk oral, Day 15, vs vehicle Group 1
[6] = female rats, Group 4, 4.69/2 mg/kg/wk oral, Day 15, vs vehicle Group 1
[7] = male rats, Group 2, 3 mg/kg/wk oral, Day 15
[8] = male rats, Group 2, 3 mg/kg/wk oral, Day 15, vs vehicle Group 1
[9] = male rats, Group 3, 3.75/2.5 mg/kg/wk oral, Day 15, vs vehicle Group 1

## CCC1(O)C(=O)OCc2c1cc1n(c2=O)Cc2cc3cc4c(cc3nc2-1)OCO4 (centres unmarked) [FL118]
[1]; [3]
  #BASO, basophils, absolute, Mean: 0.01 10^3/μL
  #EOS, eosinophils, absolute, Mean: 0.06 10^3/μL
  #LYMP, lymphocytes, absolute, Mean: 5.86 10^3/μL
  #MONO, monocytes, absolute, Mean: 0.13 10^3/μL
  #NEUT, neutrophils, absolute, Mean: 0.57 10^3/μL
  % BASO, basophils, percent, Mean: 0.2%
  % EOS, eosinophils, percent, Mean: 1.1%
  % LYMP, lymphocytes, percent, Mean: 87.1%
  % MONO, monocytes, percent, Mean: 1.9%
  % NEUT, neutrophils, percent, Mean: 9.1%
  % RET, reticulocytes, percent, Mean: 4.27%
  ALB, albumin, Mean: 35.7 g/L
  ALP, alkaline phosphatase, Mean: 101 U/L
  ALT, alanine aminotransferase, Mean: 32 U/L
  AST, aspartate aminotransferase, Mean: 137 U/L
  BIL-T, total bilirubin, Mean: 1.96 µmol/L
  CK, creatine kinase, Mean: 537 U/L
  CRE, creatinine, Mean: 24 µmol/L
  Ca, calcium, Mean: 2.41 mmol/L
  GLB, globulin, Mean: 22.7 g/L
  HCT, hematocrit, Mean: 40.4%
  HGB, hemoglobin, Mean: 13.5 g/dL
  K, potassium, Mean: 4.5 mmol/L
  MCH, mean corpuscular hemoglobin, Mean: 18.6 pg
  MCHC, mean corpuscular hemoglobin concentration, Mean: 33.4 g/dL
  MCV, mean corpuscular volume, Mean: 55.8 fL
  Na, sodium, Mean: 142 mmol/L
  P, inorganic phosphorus, Mean: 2.16 mmol/L
  PLT, platelet count, Mean: 1310 10^3/μL
  RBC, red blood cell, Mean: 7.25 10^6/μL
  RDW, RBC distribution width, Mean: 12.5* %
  TCHO, total cholesterol, Mean: 1.54 mmol/L
  TG, triglyceride, Mean: 0.24 mmol/L
  TP, total protein, Mean: 58.4 g/L
  UREA, urea, Mean: 7.24 mmol/L
  WBC, white blood cell, Mean: 6.67 10^3/μL
  sGLU, glucose, Mean: 8.47 mmol/L
[1]; [4]
  #BASO, basophils, absolute, % Diff: −16.67%
  #EOS, eosinophils, absolute, % Diff: −11.76%
  #LYMP, lymphocytes, absolute, % Diff: −9.52%
  #MONO, monocytes, absolute, % Diff: −9.59%
  #NEUT, neutrophils, absolute, % Diff: 1.42%
  #RET, reticulocytes, absolute, % Diff: 70.3%
  % BASO, basophils, percent, % Diff: 33.3%
  % EOS, eosinophils, percent, % Diff: 12.5%
  % LYMP, lymphocytes, percent, % Diff: −1.3%
  % MONO, monocytes, percent, % Diff: −1.0%
  % NEUT, neutrophils, percent, % Diff: 14.0%
  % RET, reticulocytes, percent, % Diff: 74.92%
  ALB, albumin, % Diff: −4.9%
  ALP, alkaline phosphatase, % Diff: −3%
  ALT, alanine aminotransferase, % Diff: −5%
  AST, aspartate aminotransferase, % Diff: 27%
  BIL-T, total bilirubin, % Diff: 13.44%
  CK, creatine kinase, % Diff: 34%
  CRE, creatinine, % Diff: 3%
  Ca, calcium, % Diff: −2.12%
  Cl, chloride, % Diff: 1%
  GLB, globulin, % Diff: −4.2%
  HCT, hematocrit, % Diff: −2.5%
  HGB, hemoglobin, % Diff: −3.8%
  K, potassium, % Diff: 0.0%
  MCH, mean corpuscular hemoglobin, % Diff: −1.8%
  MCHC, mean corpuscular hemoglobin concentration, % Diff: −1.2%
  MCV, mean corpuscular volume, % Diff: −0.6%
  MPV, mean platelet volume, % Diff: 1.5%
  Na, sodium, % Diff: 0%
  P, inorganic phosphorus, % Diff: 3.35%
  PLT, platelet count, % Diff: 19%
  RBC, red blood cell, % Diff: −1.92%
  RDW, RBC distribution width, % Diff: 14.9%
  TCHO, total cholesterol, % Diff: 1.99%
  TG, triglyceride, % Diff: −6.15%
  TP, total protein, % Diff: −4.7%
  UREA, urea, % Diff: −10.39%
  WBC, white blood cell, % Diff: −8.73%
  sGLU, glucose, % Diff: −17.32%
[1]; [5]
  #BASO, basophils, absolute, % Diff: −16.67%
  #EOS, eosinophils, absolute, % Diff: 0.00%
  #LYMP, lymphocytes, absolute, % Diff: −9.36%
  #MONO, monocytes, absolute, % Diff: 16.44%
  #NEUT, neutrophils, absolute, % Diff: 53.55%
  #RET, reticulocytes, absolute, % Diff: 88.0%
  % BASO, basophils, percent, % Diff: 50.0%
  % EOS, eosinophils, percent, % Diff: 4.2%
  % LYMP, lymphocytes, percent, % Diff: −5.5%
  % MONO, monocytes, percent, % Diff: 22.4%
  % NEUT, neutrophils, percent, % Diff: 51.0%
  % RET, reticulocytes, percent, % Diff: 106.89%
  ALB, albumin, % Diff: −0.2%
  ALP, alkaline phosphatase, % Diff: −21%
  ALT, alanine aminotransferase, % Diff: −4%
  AST, aspartate aminotransferase, % Diff: −17%
  BIL-T, total bilirubin, % Diff: −7.76%
  CK, creatine kinase, % Diff: −39%
  CRE, creatinine, % Diff: 0%
  Ca, calcium, % Diff: −1.38%
  Cl, chloride, % Diff: 1%
  GLB, globulin, % Diff: −2.7%
  HCT, hematocrit, % Diff: −3.9%
  HGB, hemoglobin, % Diff: −5.7%
  K, potassium, % Diff: −4.8%
  MCH, mean corpuscular hemoglobin, % Diff: 1.8%
  MCHC, mean corpuscular hemoglobin concentration, % Diff: −1.6%
  MCV, mean corpuscular volume, % Diff: 3.3%
  MPV, mean platelet volume, % Diff: 2.7%
  Na, sodium, % Diff: 1%
  PLT, platelet count, % Diff: 18%
  RBC, red blood cell, % Diff: −6.90%
  RDW, RBC distribution width, % Diff: 19.2%
  TCHO, total cholesterol, % Diff: 12.47%
  TG, triglyceride, % Diff: −1.54%
  TP, total protein, % Diff: −1.1%
  UREA, urea, % Diff: −22.22%
  WBC, white blood cell, % Diff: −3.78%
[1]; [6]
  #BASO, basophils, absolute, % Diff: −50.00%
  #EOS, eosinophils, absolute, % Diff: −32.35%
  #LYMP, lymphocytes, absolute, % Diff: −37.76%
  #MONO, monocytes, absolute, % Diff: −12.33%
  #NEUT, neutrophils, absolute, % Diff: 9.22%
  #RET, reticulocytes, absolute, % Diff: 72.0%
  % BASO, basophils, percent, % Diff: 16.7%
  % EOS, eosinophils, percent, % Diff: 4.2%
  % LYMP, lymphocytes, percent, % Diff: −6.3%
  % MONO, monocytes, percent, % Diff: 46.9%
  % NEUT, neutrophils, percent, % Diff: 58.8%
  % RET, reticulocytes, percent, % Diff: 96.48%
  ALB, albumin, % Diff: −2.7%
  ALP, alkaline phosphatase, % Diff: −16%
  ALT, alanine aminotransferase, % Diff: 122%
  AST, aspartate aminotransferase, % Diff: 106%
  BIL-T, total bilirubin, % Diff: 54.23%
  CK, creatine kinase, % Diff: 6%
  CRE, creatinine, % Diff: 2%
  Ca, calcium, % Diff: −3.66%
  Cl, chloride, % Diff: 2%
  GLB, globulin, % Diff: −7.2%
  HCT, hematocrit, % Diff: −3.4%
  HGB, hemoglobin, % Diff: −3.4%
  K, potassium, % Diff: 1.8%
  MCH, mean corpuscular hemoglobin, % Diff: 3.2%
  MCHC, mean corpuscular hemoglobin concentration, % Diff: 0.1%
  MCV, mean corpuscular volume, % Diff: 3.0%
  MPV, mean platelet volume, % Diff: 0.3%
  Na, sodium, % Diff: 1%
  P, inorganic phosphorus, % Diff: −8.41%
  PLT, platelet count, % Diff: 16%
  RBC, red blood cell, % Diff: −6.04%
  RDW, RBC distribution width, % Diff: 26.3%
  TCHO, total cholesterol, % Diff: −9.02%
  TG, triglyceride, % Diff: 10.00%
  TP, total protein, % Diff: −4.4%
  UREA, urea, % Diff: 18.06%
  WBC, white blood cell, % Diff: −33.69%
  sGLU, glucose, % Diff: −19.47%
[1]; [7]
  ALB, albumin, Mean: 33.3 g/L
  ALP, alkaline phosphatase, Mean: 146 U/L
  ALT, alanine aminotransferase, Mean: 42 U/L
  AST, aspartate aminotransferase, Mean: 100 U/L
  BIL-T, total bilirubin, Mean: 2.14
  CK, creatine kinase, Mean: 260* U/L
  CRE, creatinine, Mean: 19 µmol/L
  Ca, calcium, Mean: 2.44 mmol/L
  GLB, globulin, Mean: 22.1 g/L
  K, potassium, Mean: 4.9 mmol/L
  Na, sodium, Mean: 143 mmol/L
  P, inorganic phosphorus, Mean: 2.39 mmol/L
  TCHO, total cholesterol, Mean: 2.18*** mmol/L
  TG, triglyceride, Mean: 0.36 mmol/L
  TP, total protein, Mean: 55.5 g/L
  UREA, urea, Mean: 6.25 mmol/L
  sGLU, glucose, Mean: 10.72 mmol/L
[1]; [8]
  ALB, albumin, % Diff: −3.2%
  ALP, alkaline phosphatase, % Diff: −9%
  ALT, alanine aminotransferase, % Diff: 19%
  AST, aspartate aminotransferase, % Diff: −27%
  BIL-T, total bilirubin, % Diff: 25.44%
  CK, creatine kinase, % Diff: −51%
  CRE, creatinine, % Diff: −2%
  Ca, calcium, % Diff: 1.66%
  Cl, chloride, % Diff: 1%
  GLB, globulin, % Diff: −6.0%
  K, potassium, % Diff: −2.0%
  Na, sodium, % Diff: 1%
  P, inorganic phosphorus, % Diff: −4.02%
  TCHO, total cholesterol, % Diff: 69.94%
  TG, triglyceride, % Diff: 18.54%
  TP, total protein, % Diff: −4.3%
  UREA, urea, % Diff: −4.56%
  sGLU, glucose, % Diff: −1.42%
[1]; male rats, Group 2, 3 mg/kg/wk
  MCH % Diff: −3.4%
[1]; [9]
  ALB, albumin, % Diff: −1.0%
  ALP, alkaline phosphatase, % Diff: −30%
  ALT, alanine aminotransferase, % Diff: 34%
  AST, aspartate aminotransferase, % Diff: −24%
  BIL-T, total bilirubin, % Diff: 8.21%
  CK, creatine kinase, % Diff: −44%
  CRE, creatinine, % Diff: −3%
  Ca, calcium, % Diff: 0.08%
  Cl, chloride, % Diff: 2%
  GLB, globulin, % Diff: −6.5%
  K, potassium, % Diff: 0.4%
  Na, sodium, % Diff: 0%
  P, inorganic phosphorus, % Diff: −4.34%
  TCHO, total cholesterol, % Diff: 34.42%
  TG, triglyceride, % Diff: 10.60%
  TP, total protein, % Diff: −3.2%
  UREA, urea, % Diff: −13.45%
  sGLU, glucose, % Diff: −6.38%
[1]; male rats, Group 3, 3.75/2.5 mg/kg/wk
  MCH % Diff: −4.1%
[1]; male rats, Group 4, 4.69/2 mg/kg/wk oral, Day 15, N 2, vs vehicle Group 1
  GLB, globulin, % Diff: −39.2%
[1]; male rats, Group 4, 4.69/2 mg/kg/wk
  MCH % Diff: −1.7%
[2]; Day −4
  MCH % Diff: 0.1%
  GLB (globulin) % Diff vs Group 1: −12.4%
[2]; Day 15
  GLB (globulin), % Diff versus vehicle Group 1: 9.3%
  MCH % Diff: −1.8%
  GLB (globulin) % Diff vs Group 1: −24.1%
[2]; Day −4 (pre-dose)
  GLB (globulin), % Diff versus vehicle Group 1: 9.0%
Caco-2 cells (P-gp); 1 μM, +/−1 μM valspodar
  Caco-2 cell permeability: not affected by the Pgp inhibitor Valspodar
Caco-2 cells (P-gp); Caco-2
  Absorption Potential Classification: High (Papp (A-to-B)≥1.0×10^−6 cm/s: High)
Caco-2 cells (P-gp); Caco-2, without and with 1 μM valspodar
  P-gp Substrate Classification: Negative (ER≥2.0 without valspodar, and reduced by <50% with valspodar: Negative)

Where two headings read alike, the source gives them in different places. Marks after values point to notes of the source that are not given here.
